AlphaSeq binding of Ab-91 heavy chain variants to a spike HR2 peptide

Source: Engelhart et al. 2022 (doi:10.1038/s41597-022-01779-4), MIT Lincoln Laboratory and A-Alpha Bio; data file from the FLAb repository.

Binding partner: SARS-CoV-2 spike HR2 peptide, sequence PDVDLGDISGINAS.

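Phage display of a naive human antibody library on the peptide gave the parent. Variants in AAYL51 differ from the parent at up to three CDR positions; double and triple changes were sampled at random. The scFvs were displayed on barcoded MATa yeast, the peptide on MATalpha yeast. Binding brings cells together so that they mate, and sequencing counts the barcode pairs among the diploids. A regression on co-assayed BCL2-family reference pairs converts the normalised counts of each replicate to an apparent Kd. There are three technical replicates.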

Ab-91 is the parent antibody, in scFv form: VL, then the linker GGGGSGGGGSGGGGS, then VH. The light chain is unchanged in all variants.
VL: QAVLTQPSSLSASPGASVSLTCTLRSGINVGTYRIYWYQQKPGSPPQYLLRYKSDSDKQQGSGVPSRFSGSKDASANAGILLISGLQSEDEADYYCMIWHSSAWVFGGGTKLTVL
VH: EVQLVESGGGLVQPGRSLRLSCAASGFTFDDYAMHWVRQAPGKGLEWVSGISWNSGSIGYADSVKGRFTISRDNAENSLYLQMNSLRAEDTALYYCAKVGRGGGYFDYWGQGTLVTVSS

Positions count from residue 1 of the parent VH; W53F puts F in place of W. This list gathers variants with a substitution at W53 (VH, numbered from residue 1). Values are apparent Kd, the geometric mean of the replicates that gave a signal; lower means stronger binding. Where no diploid with the target was found in any replicate, the entry reads "not detected": below detection, most likely a poor binder, though not proof of it. The list is sorted by this average, lowest first, undetected variants last. Background: pairings of library AAYL51 with three empty control strains gave a value in 21% of cases (median 34 µM, 5th percentile 1.8 µM). Values in that range, when seen in few replicates, are hard to tell from nonspecific mating. Also given: how often the same scFv was detected with the empty control strains.

changes	Kd	detected	control signals
W53F	2.5 nM	3/3	4/9
F29I+W53P+F106H	6.1 nM	3/3	6/9
W53T+S63W	7.9 nM	3/3	3/9
T28R+W53Y	8.1 nM	3/3	6/9
W53F+F106A	10 nM	3/3	1/9
T28I+W53A+K65G	32 nM	3/3	4/9
I51M+W53Y+G56A	43 nM	3/3	5/9
Y32Q+W53P+G56N	160 nM	3/3	1/9
W53L+K65N+R101K	160 nM	3/3	1/9
W53F+R101Y	200 nM	3/3	4/9
T28D+W53I+G103A	210 nM	1/3	0/9
W53V+G100Y	520 nM	3/3	0/9
W53T+D62V+Y108W	600 nM	3/3	4/9
F27P+W53S+V64G	720 nM	2/3	0/9
W53D	2.6 µM	3/3	4/9
W53K+K65I	4.0 µM	1/3	0/9
F27P+W53C+N54W	4.2 µM	1/3	1/9
W53S+S57V+A61D	4.6 µM	3/3	2/9
S52N+W53N	5.5 µM	1/3	0/9
D30N+W53N+F106G	6.8 µM	3/3	8/9
M34N+W53S+G103V	7.3 µM	1/3	3/9
F29G+W53G+V99M	7.6 µM	2/3	4/9
D31Y+W53K+Y60L	10 µM	1/3	1/9
W53V+G56S+S57L	17 µM	3/3	6/9
D31P+W53C+S63H	17 µM	1/3	2/9
W53N+D62R+S63Q	17 µM	2/3	3/9
W53H+S63D+K65H	21 µM	1/3	0/9
W53T+I58G+Y108M	25 µM	2/3	3/9
W53Y+S57P	34 µM	2/3	2/9
W53Q+S57K+K65C	34 µM	2/3	1/9
W53V+G56E+G103D	37 µM	1/3	0/9
G50S+W53A+R101D	42 µM	1/3	1/9
F27W+W53F+G56E	47 µM	3/3	4/9
A33K+M34E+W53M	49 µM	1/3	0/9
W53E+A61H+G104L	53 µM	1/3	2/9
F29W+W53S+S63V	53 µM	1/3	5/9
H35R+W53I	68 µM	1/3	0/9
D31K+W53F+G103F	100 µM	1/3	3/9
G50T+W53M+S55G	120 µM	1/3	0/9
M34C+W53E+G56C	140 µM	2/3	4/9
T28Q+W53A+V99A	140 µM	2/3	4/9
W53R+N54C+Y105H	180 µM	2/3	3/9
W53H+G104L	230 µM	3/3	7/9
Y32N+W53M+V64Y	300 µM	2/3	4/9
Y32P+H35L+W53L	310 µM	2/3	1/9
A33H+I51W+W53G	440 µM	2/3	6/9
G26W+W53D+G56D	470 µM	3/3	5/9
W53H+S57Y+G100M	610 µM	1/3	4/9
W53S+V99K+G103K	650 µM	1/3	2/9
G26I+W53M+G56C	not detected	0/3	5/9
W53C+V64R+V99N	not detected	0/3	0/9
S52W+W53P+G100R	not detected	0/3	1/9
T28A+W53R+G104S	not detected	0/3	0/9
W53Q+I58G+Y105S	not detected	0/3	1/9
H35L+W53D+K65G	not detected	0/3	0/9
S52F+W53F+A61K	not detected	0/3	1/9
W53L+S55T	not detected	0/3	1/9
G26S+I51L+W53T	not detected	0/3	1/9
M34R+W53G+G103D	not detected	0/3	0/9
W53E+I58D+K65P	not detected	0/3	0/9
M34H+W53Q+K65S	not detected	0/3	0/9
H35I+W53I+G59A	not detected	0/3	0/9
D30S+W53V+K65I	not detected	0/3	0/9
D30T+H35L+W53N	not detected	0/3	2/9
A33M+W53M	not detected	0/3	0/9
A33D+H35V+W53M	not detected	0/3	2/9
W53A+G103C+Y108S	not detected	0/3	0/9
W53C+N54V+I58C	not detected	0/3	0/9
I51H+W53D+S63H	not detected	0/3	1/9
Y32S+W53T+G59W	not detected	0/3	5/9
G26K+D30A+W53L	not detected	0/3	5/9
M34N+W53P+D107S	not detected	0/3	0/9
M34P+W53P+V99T	not detected	0/3	1/9
A33N+W53C+G59T	not detected	0/3	6/9
W53V+V99T+Y105D	not detected	0/3	2/9
W53Y	not detected	0/3	0/9
W53K+D62G+D107I	not detected	0/3	0/9
F27K+D31A+W53Y	not detected	0/3	0/9
W53Y+G56I+Y60R	not detected	0/3	3/9
G50R+W53K+Y60W	not detected	0/3	0/9

Excerpt, the final 12 entries:

changes	Kd	detected	control signals
I51H+W53D+S63H	not detected	0/3	1/9
Y32S+W53T+G59W	not detected	0/3	5/9
G26K+D30A+W53L	not detected	0/3	5/9
M34N+W53P+D107S	not detected	0/3	0/9
M34P+W53P+V99T	not detected	0/3	1/9
A33N+W53C+G59T	not detected	0/3	6/9
W53V+V99T+Y105D	not detected	0/3	2/9
W53Y	not detected	0/3	0/9
W53K+D62G+D107I	not detected	0/3	0/9
F27K+D31A+W53Y	not detected	0/3	0/9
W53Y+G56I+Y60R	not detected	0/3	3/9
G50R+W53K+Y60W	not detected	0/3	0/9